Among the data in PubChem BioAssay AID624287 (National Center for Advancing Translational Sciences (NCATS), 2012) are activation (cAMP increase) values, retold here.

This is a selection; strong and weak results do not stand in their true shares. Results filed as inconclusive are left out. The source made the active and inactive calls. The call rests on the fitted dose curve; in most records, active means well fitted activation curve with a large enough effect; inconclusive means small, poorly fitted or top-dose-only effect, or another doubt; inactive means no such curve, though single readings can be large or run the other way; cell line not stated here.

The assay can be described thus: qHTS for Agonist of gsp, the Etiologic Mutation Responsible for Fibrous Dysplasia/McCune-Albright Syndrome: qHTS.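 Further: phosphodiesterase inhibitor Ro 20-1724 added with compounds to block cAMP breakdown; nearly all actives have a fitted effect of over 60% in size.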 The settings on record: gsp mutant cells, cAMP HTRF, 30 min; at 76.9 µM (top of the series) unless noted.
As to `COP(=O)(OC)N1CC1c1ccccc1` (stereo not given), the activation (cAMP increase) was inactive: -22.4%.
For `O=[N+]([O-])c1cc([N+](=O)[O-])c(O)c([N+](=O)[O-])c1.c1ccc(Oc2ccncc2)cc1` the value was inactive: -4.37% [at 15.4 µM].
To `CCOC(=O)c1ccc(NC(=O)C(C)(CCl)SC)cc1` (stereo not given) belongs inactive: 2.75% [at 15.4 µM].
On to `CCOC(=O)c1ccc(NP(C)(=O)Oc2ccc(OC)cc2)cc1` (stereo not given), for which the activation (cAMP increase) is inactive: -4.64% [at 15.4 µM].
As to `CSc1ccc(Nc2c([N+](=O)[O-])cc([N+](=O)[O-])cc2[N+](=O)[O-])cc1`, the activation (cAMP increase) is inactive: -4.01%.
For `CCOP(C)(=S)SCC(=O)NC(C)C(=O)O` (stereo not given) the value was inactive: -0.513%; for `O=C(OC1CN2CCC1CC2)c1cccc([N+](=O)[O-])c1` (stereo not given), inactive: 24.5% [at 15.4 µM].
To `CP(=O)(Nc1ccccn1)Oc1ccc(Cl)cc1` (stereo not given) belongs inactive: 2.16%.
To `CCC(C)N(CC(C)C)C(=S)SC(NC(C)=O)C(Cl)(Cl)Cl` (stereo not given) belongs inactive: -31.3%; to `CP(=O)(Nc1ccc(SC(F)(F)F)cc1)Oc1ccc(Cl)cc1` (stereo not given), inactive: 17.1%.
Take `Cc1cccc(C)c1OP(C)(=O)Nc1ccc(SC(F)(F)F)cc1` (stereo not given): the activation (cAMP increase) was inactive: -35.3%.
To `COP1(=S)c2c(C)nn(CCC#N)c2N=C(c2ccc(F)cc2)N1C` (stereo not given) belongs inactive: 4.77%; to `Cc1cc(C)cc(OP(C)(=O)Nc2ccc(SC(F)(F)F)cc2)c1` (stereo not given), inactive: -5.52% [at 15.4 µM]; to `CCc1ccc(OP(C)(=O)N2CCN(c3ccc([N+](=O)[O-])cc3)CC2)cc1` (stereo not given), inactive: -35.4%.
To `CP(=O)(NC(=O)Nc1ccccc1)Oc1ccccc1` (stereo not given) belongs inactive: -5.9%.
For `O=C(COc1ccccc1)OC1CN2CCC1CC2` (stereo not given) the value was inactive: -0.164%.
On to `C[N+]1=C2C=CC=CC=C2SC12C([N+](=O)[O-])=CC([N+](=O)[O-])=C[C-]2[N+](=O)[O-]` (stereo not given), for which the activation (cAMP increase) was inactive: 24.1%.
Regarding `Nc1ccc([As](=O)(O)c2ccc(N)cc2)cc1`, the activation (cAMP increase) was inactive: -6.23% [at 15.4 µM].
Consider `CC(C)(C)c1ccc(OP(C)(=O)O)cc1`, for which the activation (cAMP increase) was inactive: -33.7%.
Consider `COc1ccccc1OP(C)(=O)Nc1ccccc1Br` (stereo not given), for which the activation (cAMP increase) is inactive: -3.19% [at 15.4 µM].
`CP(=O)(Nc1ccc(Cl)cc1)Oc1ccc(F)cc1` (stereo not given): the activation (cAMP increase) is inactive: -42%.
To `CCN(/C(=N/P(=O)(N1CCOCC1)N1CCOCC1)N1CCOCC1)c1ccc(OC)cc1` belongs inactive: 2.85% [at 15.4 µM].
For `CN(C)C(=O)OCCc1n(C)cc[n+]1C` the value was inactive: 1.36%; for `CC(C)=N/N=C(\N)N[N+](=O)[O-]`, inactive: 22.7% [at 15.4 µM]; for `CN(C)C(=O)c1c([N+](=O)[O-])cc([N+](=O)[O-])cc1[N+](=O)[O-]`, inactive: 13.6%.
To `CC(C)c1nc(Nc2ccccc2)n(P(=O)(N(C)C)N(C)C)n1` belongs inactive: 21.9%; to `c1cc(-c2nn[nH]n2)ccc1-c1nn[nH]n1`, inactive: -1.83%; to `COc1ccc(C2=NCC(CBr)S2)cc1` (stereo not given), inactive: 23.8% [at 15.4 µM].
On to `COc1ccc(OP(C)(=O)Nc2ccc(Br)cc2)cc1` (stereo not given), for which the activation (cAMP increase) was inactive: -2.87% [at 15.4 µM].
For `CCN(CC)CC(O)COC(=O)C(O)(c1ccccc1)C1CCCCC1` (stereo not given) the value was inactive: 7.33%; for `O=C(OCCCN1CCCC1)C(O)(c1ccccc1)C1CCCCC1` (stereo not given), inactive: -7.88% [at 15.4 µM].
To `COc1ccccc1OP(C)(=O)Nc1c(C)n(C)n(-c2ccccc2)c1=O` (stereo not given) belongs inactive: -49%.
To `CC(=O)N1C2C3N(C(C)=O)C1C1N(C(C)=O)C(C(N1C(C)=O)N3C(C)=O)N2C(C)=O` belongs inactive: -37.5%; to `O=[N+]([O-])c1cccc2n[nH]nc12`, inactive: -26%.
For the compound `O=[N+]([O-])c1cc([N+](=O)[O-])c(CCNc2ccccc2)c([N+](=O)[O-])c1`, the activation (cAMP increase) is inactive: -22.9% [at 15.4 µM].
Regarding `CCc1nc2c(n1)c1c(non1O)c1c2no[n+]1[O-]`, the activation (cAMP increase) is inactive: -16.9%.
`CCc1ccc(OP(C)(=O)Nc2cccnc2)cc1` (stereo not given): the activation (cAMP increase) is inactive: 3.01% [at 15.4 µM].
To `Cc1ccc(NP(=O)(Oc2ccccc2)Oc2ccccc2)nc1` belongs inactive: -1.27%; to `CP(=O)(Oc1ccccc1)N1CCOC1=O` (stereo not given), inactive: -3.91%.
For `CC(C)(C)C(=O)NC(Sc1ccncn1)C(Cl)(Cl)Cl` (stereo not given) the value was inactive: 27.8%; for `O=[N+]([O-])c1ncn(CCn2ncnc2[N+](=O)[O-])n1`, inactive: -0.198%.
Turning to `O=[N+]([O-])c1cccc(NC2=NCC(CBr)S2)c1` (stereo not given), the activation (cAMP increase) is inactive: 5.29%.
To `O=C(O)CNc1ccc([As](=O)(O)O)cc1` belongs inactive: 6.15%.
Consider `O=P1(N(CCCl)CCCl)OCCCS1` (stereo not given), for which the activation (cAMP increase) is inactive: 8.36%.
For `O=C(Nc1cc([As](=O)(O)O)ccc1O)c1ccccc1` the value was inactive: 25.3%; for `CCOC(=O)c1ccc(NP(C)(=O)Oc2ccc(Cl)cc2)cc1` (stereo not given), inactive: -3.35%; for `CP(=O)(OC12CC3CC(CC(C3)C1)C2)OC12CC3CC(CC(C3)C1)C2`, inactive: -13.5%.
For `CCN(N=Nc1nonc1N)c1nonc1N` the value was inactive: 4.53% [at 15.4 µM].
Regarding `CCC(=O)N(c1ccccc1)C1CCCCC1`, the activation (cAMP increase) is inactive: 4.06%.
For `CP(=O)(OCCOc1ccccc1)OCCOc1ccccc1` the value was inactive: 8%; for `CP(=O)(Nc1ccc(Cl)cc1Cl)Oc1ccccc1` (stereo not given), inactive: 1.58%.
To `CCCCCCCCCCCCCCCC1C[N+](C)(C)CCOP(C)(=O)O1` (stereo not given) belongs inactive: 1.45%; to `Nc1cccc2ccc([As](=O)(O)O)cc12`, inactive: -4.13%.
With `CCCC1OP(N)(=O)OCC1CC` (stereo not given), the activation (cAMP increase) was inactive: 15.5%.
For `O=C(O)c1ccccc1[As](=O)(O)O` the value was inactive: -9.22% [at 15.4 µM]; for `CC(=O)Nc1ccc([As](=O)(O)O)cc1`, inactive: -1.7% [at 15.4 µM].
As for `CN(C)P(=O)(N(C)C)n1c(Nc2ccccc2)nnc1-c1ccccc1`, the activation (cAMP increase) is inactive: -87.6%.
For `Cc1cc(C)cc(OP(C)(=O)Nc2cccc(C(F)(F)F)c2)c1` (stereo not given) the value was inactive: -10.7% [at 15.4 µM]; for `O=P(Nc1nc2ccc(Cl)cc2s1)(c1ccccc1)c1ccccc1`, inactive: 26.1% [at 15.4 µM].
For `Cc1ccc(NP(=O)(Oc2ccccc2F)Oc2ccccc2F)nc1` the value was inactive: -1.81% [at 15.4 µM]; for `COc1ccccc1OP(C)(=O)Nc1ccc(C)c(C)c1` (stereo not given), inactive: 27.4%; for `CCOP(=O)(Nc1ccccc1)OCC`, inactive: 0%.
For `Cc1cc(SC(NC(=O)c2ccc(F)cc2)C(Cl)(Cl)Cl)ncn1` (stereo not given) the value was inactive: 4.27%; for `COc1ccc(OP(C)(=O)Nc2ccccc2Br)cc1` (stereo not given), inactive: -7.11% [at 15.4 µM]; for `O=[N+]([O-])c1cc([N+](=O)[O-])c(Nc2ccccn2)c([N+](=O)[O-])c1`, inactive: -3.21% [at 15.4 µM].
With `CC(C)CC(=O)NC(Sc1ccc(Cl)cc1)C(Cl)(Cl)Cl` (stereo not given), the activation (cAMP increase) is inactive: -29.4%.
To `Nc1cc(N)c2nonc2c1[N+](=O)[O-]` belongs inactive: -3.36% [at 15.4 µM]; to `O=C(NC(Sc1ccncn1)C(Cl)(Cl)Cl)c1ccccc1` (stereo not given), inactive: -23.9% [at 15.4 µM].
For `Oc1ccccc1CNc1ccccn1` the value was inactive: 10.8%.
To `COc1ccccc1OP(C)(=O)Nc1ccc(C)cc1C` (stereo not given) belongs inactive: 4.5%; to `CP(=O)(Nc1ccccn1)Oc1ccccc1` (stereo not given), inactive: 13.1%; to `CCc1ccc(OP(C)(=O)O)cc1`, inactive: -55.4%.
As for `NC(=O)c1cc([N+](=O)[O-])cc([N+](=O)[O-])c1N`, the activation (cAMP increase) was inactive: -23.8%.
For `Cc1ccc(N/C(=N/P(=O)(N2CCOCC2)N2CCOCC2)N2CCOCC2)cc1`, the activation (cAMP increase) was inactive: 0.82% [at 15.4 µM].
For `COc1ccccc1OP(C)(=O)Nc1ccc(Br)cc1` (stereo not given) the value was inactive: 21.6% [at 15.4 µM].
For `Cc1ccc(OP(=O)(Nc2nccs2)Oc2ccc(C)cc2)cc1` the value was inactive: -9.27% [at 15.4 µM]; for `COc1ccc(OP(C)(=O)Nc2ccccn2)cc1` (stereo not given), inactive: -2.65%.
On to `COc1ccccc1OP(=O)(Nc1ccc(C)cn1)Oc1ccccc1OC`, for which the activation (cAMP increase) was inactive: 3.46% [at 15.4 µM].
For `CN(C)CCOC(=O)C(O)(c1ccccc1)C1CCCC1` (stereo not given) the value was inactive: -24.2%.
To `Clc1ccc(Cl)c(NC2=NCC(CBr)S2)c1` (stereo not given) belongs inactive: 2.07% [at 15.4 µM].
As to `CN1CCCC(OC(=O)C(c2ccccc2)c2ccccc2)C1` (stereo not given), the activation (cAMP increase) was inactive: 3.06%.
For `COC(=O)C1(C)COP(=O)(NCc2ccccc2)OC1` (stereo not given) the value was inactive: -96.9%; for `N#C/C(=C\c1ccc(N(CCBr)CCBr)cc1)C(N)=O`, inactive: -53.6%.
For `CC(=O)c1ccc(N2CC2c2ccncc2)cc1` (stereo not given) the value was inactive: 13.6%; for `C[C@H]1OP(=O)(Oc2ccccc2)C[C@@H]2O[C@@H]21` (stereo not given in full), inactive: -37.8%; for `O=C(OCCN1CCN(CCOCc2ccccc2)CC1)C(O)(c1ccccc1)c1ccccc1`, inactive: -1.37%.
Turning to `Cc1ccccc1CN(C)C(=O)COC(=O)C(O)(c1ccccc1)c1ccccc1`, the activation (cAMP increase) was inactive: 3.61%.
To `CC(=O)Nc1ccc(Oc2c([N+](=O)[O-])cc([N+](=O)[O-])cc2[N+](=O)[O-])cc1` belongs inactive: -28.9%; to `CC(=O)Nc1ccc([As](=O)(O)O)c(O)c1`, inactive: 3.94% [at 15.4 µM]; to `CCOc1ccc(C2=NCC(CBr)S2)cc1` (stereo not given), inactive: 1.03%.
Turning to `O=P1(Nc2nc3ccc(Cl)cc3s2)COc2ccccc2O1` (stereo not given), the activation (cAMP increase) is inactive: -29.1%.
For `CP(=O)(Nc1ccccc1F)Oc1ccccc1` (stereo not given) the value was inactive: 19.8%.
For `CCc1cc(O)c([N+](=O)[O-])c(C)c1[N+](=O)[O-]` the value was inactive: 2.14% [at 15.4 µM].
Consider `CC(C)c1ccc(OP(C)(=O)Nc2ccc(SC(F)(F)F)cc2)cc1` (stereo not given), for which the activation (cAMP increase) is inactive: 0.764%.
For `CC(C)(C)C(=O)NC(Sc1ccccc1)C(Cl)(Cl)Cl` (stereo not given) the value was inactive: -2.17% [at 15.4 µM].
